Experimental data published in patent US6447748B1, “Benzamide compounds for cancer imaging and therapy” (Research Corporation Technologies, Inc., priority 1993, dated 2002).

By UniProt entry, the sequences of proteins in these tests, tags left out.
UniProt Q5BJF2, whole entry: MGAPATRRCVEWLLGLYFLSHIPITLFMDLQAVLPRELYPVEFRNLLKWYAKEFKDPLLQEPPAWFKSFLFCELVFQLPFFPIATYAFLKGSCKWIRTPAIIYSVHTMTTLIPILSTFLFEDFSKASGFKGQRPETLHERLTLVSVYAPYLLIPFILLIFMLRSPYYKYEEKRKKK

Target: T1, sigma sites labeled by 4-[125I]BP in MCF-7 breast cancer cells (Homo sapiens, UniProt Q5BJF2)
T1 construct: Intact adherent cells were washed (2×1 mL) with 10 mM phosphate buffer; endogenous in cells; host or cells: intact adherent MCF-7 breast cancer cells
Experiment: Homologous and heterologous competition for 4-[125I]BP binding in intact MCF-7 cells
Conditions: 37° C. for 1 hr., unit printed in b378 only, not in the table

| Substance | Ki |
| --- | --- |
| (−)SKF 10,047 | > 10 µM |
| (+)SKF 10,047 | > 10 µM |
